Patent US7160888B2, “[1,8]naphthyridin-2-ones and related compounds for the treatment of schizophrenia” (Warner Lambert Company LLC, priority 2003, dated 2007)

By UniProt entry, the sequences of proteins in these tests, tags left out.
UniProt P14416, whole entry: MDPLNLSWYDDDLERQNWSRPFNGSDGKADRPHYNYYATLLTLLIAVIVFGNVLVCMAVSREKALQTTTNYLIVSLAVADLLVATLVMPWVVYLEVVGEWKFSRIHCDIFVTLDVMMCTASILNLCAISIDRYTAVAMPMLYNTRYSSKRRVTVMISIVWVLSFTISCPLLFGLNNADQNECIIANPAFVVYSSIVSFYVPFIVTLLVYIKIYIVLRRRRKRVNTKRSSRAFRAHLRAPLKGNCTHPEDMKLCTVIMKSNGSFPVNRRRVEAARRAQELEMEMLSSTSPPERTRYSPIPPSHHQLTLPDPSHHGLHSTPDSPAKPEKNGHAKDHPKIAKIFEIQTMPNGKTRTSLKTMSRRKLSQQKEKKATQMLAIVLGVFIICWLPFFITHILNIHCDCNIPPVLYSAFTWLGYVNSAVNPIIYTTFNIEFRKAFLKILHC

Target: D2 receptor (Homo sapiens, UniProt P14416)
Experiment: [3H]Thymidine uptake assay for D2 intrinsic activity
Format: cell-based
Conditions: Table 1; test compound 1 μM; 1 μM Quinpirole = 100% intrinsic activity

| Structure (SMILES) | Emax at 1 µM [%] |
| --- | --- |
| O=c1ccc2ccc(OCCCCN3CCN(c4cc(F)cc5c4CCCC5)CC3)nc2[nH]1 [Example B34, 7-{4-[4-(3-Fluoro-5,6,7,8-tetrahydro-naphthalen-1-yl)-piperazin-1-yl]-butoxy}-1H-[1,8]naphthyridin-2-one] | 14 |
| O=c1ccc2ccc(OCCCCN3CCN(c4ccccc4Cl)CC3)nc2[nH]1 [Example B25, 7-{4-[4-(2-Chloro-phenyl)-piperazin-1-yl]-butoxy}-1H-[1,8]naphthyridin-2-one] | 43 |
| O=c1ccc2ccc(OCCCCN3CCN(c4cc(F)cc5ccccc45)CC3)nc2[nH]1 [Example B53, 7-{4-[4-(3-Fluoro-naphthalen-1-yl)-piperazin-1-yl]-butoxy}-1H-[1,8]naphthyridin-2-one] | 26 |
| O=c1ccc2ccc(OCCCCN3CCN(c4cccc5ccc(F)cc45)CC3)nc2[nH]1 [Example B49, 7-{4-[4-(7-Fluoro-naphthalen-1-yl)-piperazin-1-yl]-butoxy}-1H-[1,8]naphthyridin-2-one] | 50 |
| O=c1ccc2ccc(OCCCCN3CCN(c4cccc5cc(F)ccc45)CC3)nc2[nH]1 [Example B48, 7-{4-[4-(6-Fluoro-naphthalen-1-yl)-piperazin-1-yl]-butoxy}-1H-[1,8]naphthyridin-2-one] | 19 |
| Cc1ccccc1N1CCN(CCCCOc2ccc3ccc(=O)[nH]c3n2)CC1 [Example B12, 7-[4-(4-o-Tolyl-piperazin-1-yl)-butoxy]-1H-[1,8]naphthyridin-2-one] | 38 |
| O=c1ccc2ccc(CCCCCN3CCN(c4cccc(Cl)c4Cl)CC3)nc2[nH]1 [Example C20, 7-{5-[4-(2,3-Dichloro-phenyl)-piperazin-1-yl]-pentyl}-1H-[1,8]naphthyridin-2-one] | 33 |
